The values below come from PubChem BioAssay AID2029 (NMMLSC, 2009).

The entries are a selection whose mix differs from that of the whole data set. The source made the active and inactive calls.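 How the source made its calls: active means GFP response relative to DMSO above a set limit, near the screen mean plus 3 SD (cut at about 150% in these data); inconclusive means Fewer than 70 cells measured for a yeast strain; inactive means the rest.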

The experiment can be described thus: modulators of CIT2-GFP expression in yeast, primary screen, S. cerevisiae, GFP fusion, multiplex flow cytometry, MLPCN library (AID 2029).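 Further: ratio of well median GFP fluorescence to mean of DMSO wells on the plate.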 The conditions noted are these: S. cerevisiae CIT2-GFP strain, 3 h, at 10 µM, stronger effect = higher value, 100 means same as DMSO wells. In general terms: Flow cytometry measures light scatter and fluorescence of single cells or particles in a stream.
For `CCOP(=O)(Nc1cccc2ccccc12)OCC`, the GFP response vs DMSO was active: 175%. The figure for `COc1cc(C2NCCC3(OCCO3)C2(C)C)cc(OC)c1OC` (centres undefined) is inactive: 101%; for `O=C(OC1CN2CCC1CC2)c1ccc(Cl)cc1` (centres undefined) it is inactive: 86%. Take `CS(=O)(=O)c1ccc(Cl)c(NC(=O)COC(=O)C(O)(c2ccccc2)c2ccccc2)c1`: the GFP response vs DMSO was inactive: 99.6%. The figure for `COc1cc(C(=O)NCC2(N3CCOCC3)CCCCC2)cc(Cl)c1OC(C)C` is inactive: 102%. The figure for `O=[As](O)(O)c1cccnc1` is inactive: 106%; for `O=[As](O)(c1cccc(O)c1)c1cccc(O)c1` it is inactive: 100%; for `Cc1cccc(OCC(=O)OC2CN3CCC2CC3)c1` (centres undefined) it is inactive: 109%. The figure for `NC(=O)Nc1ccc([As](=O)(O)O)cc1` is inactive: 108%; for `CN(C(=O)Cc1ccccc1)[C@@H]1CC[C@]2(CCCO2)C[C@H]1N1CCCC1` it is inactive: 87.5%. As for `CCOP1(=S)c2c(C)nn(CCC#N)c2N=C(c2ccc(F)cc2)N1C` (centres undefined), the GFP response vs DMSO is inactive: 99.4%. The figure for `N#CCCN(C(=O)COC(=O)C(O)(c1ccccc1)c1ccccc1)c1ccc(F)cc1` is inactive: 99.3%; for `CN(C(=O)Cc1ccc(Cl)c(Cl)c1)[C@H]1CC[C@@]2(CCCO2)C[C@@H]1N1CCCC1` it is inactive: 87.8%; for `CN(C)C(=O)c1cc([N+](=O)[O-])cc2c1-c1c(cc([N+](=O)[O-])cc1[N+](=O)[O-])C2=O` it is inactive: 78.2%. For `O=[N+]([O-])c1ccc2c(c1)nnn2O`, the GFP response vs DMSO was inactive: 110%.

Regarding `O=P(Nc1nccs1)(c1ccccc1)c1nc2ccccc2s1` (centres undefined), the GFP response vs DMSO is inactive: 85.8%.

As to `O=P(Nc1nccs1)(Oc1ccccc1)Oc1ccccc1`, the GFP response vs DMSO was inactive: 96.9%. `CCOP1(=S)c2c(C)nn(CCC#N)c2N=C(c2ccccc2F)N1C` (centres undefined): the GFP response vs DMSO is inactive: 97.8%. For `CS(=O)(=O)c1cc([N+](=O)[O-])c2no[n+]([O-])c2c1` the value was inactive: 86.9%. For `O=C(O)COc1ccc([As](=O)(O)O)cc1[N+](=O)[O-]` the value was inactive: 117%; for `Nc1ccccc1[As](=O)(O)c1ccccc1`, inactive: 85.6%; for `O=P1(Nc2ncccn2)COc2ccccc2OC1`, inactive: 102%. `Nc1cccc([As](=O)(O)c2ccccc2)c1`: the GFP response vs DMSO is inactive: 75%. Turning to `NS(=O)(=O)c1cccc(NC(=O)COC(=O)C(O)(c2ccccc2)c2ccccc2)c1`, the GFP response vs DMSO was inactive: 93.1%. For `O=P1(Nc2ccc(Br)cn2)COc2ccccc2OC1` the value was inactive: 104%; for `O=[As](O)(c1cccs1)c1cccs1`, inactive: 98.8%.

For the compound `Cc1ccc(OCC(=O)OC2CN3CCC2CC3)cc1` (centres undefined), the GFP response vs DMSO was inactive: 102%. For `Cc1ccc(C(=O)OC2CN3CCC2CC3)cc1` (centres undefined) the value was inactive: 94.1%.

Consider `CC1CCC(C(C)C)C(OP(=O)(Nc2ccccn2)c2ccccc2)C1` (centres undefined), for which the GFP response vs DMSO is inactive: 90.2%.

As for `Cc1nn(-c2ccccc2)c2c1P(=O)(N1CCOCC1)N(C)C(c1ccccc1)=N2` (centres undefined), the GFP response vs DMSO was inactive: 98.9%.

For the compound `CN(C)C1(CNC(=O)c2ccc(S(C)(=O)=O)cc2)CCCCC1`, the GFP response vs DMSO is inactive: 99.6%. On to `O=C(/C=C/c1ccccc1)OC1CN2CCC1CC2` (centres undefined), for which the GFP response vs DMSO was inactive: 92.8%. The figure for `COc1ccccc1CNC(=O)COC(=O)C(O)(c1ccccc1)c1ccccc1` is inactive: 105%.

Turning to `CN(C(=O)Cc1ccc(Cl)c(Cl)c1)[C@@H]1CCCC[C@H]1N1CCCC1`, the GFP response vs DMSO is inactive: 81.2%. The figure for `CC(C)/C=N\N=C(\N)N[N+](=O)[O-]` is inactive: 98.3%. For `CC1(CBr)Cn2c(nc3ccccc3c2=O)S1` (centres undefined) the value was inactive: 102%. As to `O=[As](O)(c1ccccc1Br)c1ccccc1Br`, the GFP response vs DMSO is inactive: 104%. The figure for `CCOP(=O)(NC(=NC(C)c1ccccc1)NC(C)c1ccccc1)OCC` (centres undefined) is inactive: 100%. The figure for `CCC1=CC2Cc3nc4ccc(Cl)cc4c(N)c3C(C1)C2` (centres undefined) is inactive: 96.7%. For `O=P1(Nc2ccccn2)COc2ccccc2OC1` the value was inactive: 99%; for `CN(CCCl)Cc1cc(Cl)c(NC2=NCCN2)c(Cl)c1`, inactive: 101%; for `CCOP(=O)(Nc1ccc(C)cn1)OCC`, inactive: 109%. On to `CC(C)(C)C(=O)NC(Sc1ncccn1)C(Cl)(Cl)Cl` (centres undefined), for which the GFP response vs DMSO is inactive: 99%. The figure for `Clc1n[nH]nc1-c1nn[nH][15n]1` is inactive: 102%.
